Measurements as given in US20250382306A1, “HETEROCYCLIC COMPOUND AS TAAR1 LIGAND AGONIST” (SHANDONG LUYE PHARMACEUTICAL CO., LTD., priority 2022, published 2025).

By UniProt entry, the sequences of proteins in these tests, tags left out.
UniProt Q96RJ0, whole entry: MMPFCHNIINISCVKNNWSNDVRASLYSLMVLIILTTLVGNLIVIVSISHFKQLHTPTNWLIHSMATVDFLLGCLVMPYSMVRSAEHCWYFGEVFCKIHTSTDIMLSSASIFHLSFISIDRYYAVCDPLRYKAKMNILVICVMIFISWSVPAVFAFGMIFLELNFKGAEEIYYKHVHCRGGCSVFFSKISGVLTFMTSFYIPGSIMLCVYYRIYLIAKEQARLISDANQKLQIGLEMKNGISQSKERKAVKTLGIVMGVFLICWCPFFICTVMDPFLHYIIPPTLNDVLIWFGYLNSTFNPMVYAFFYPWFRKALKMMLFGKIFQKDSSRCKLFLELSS

Biological target: TAAR1 (Homo sapiens, UniProt Q96RJ0)
Test: In vitro TAAR1 functional activity (cAMP Hunter CHO-K1 TAAR1 Gs cell line, HitHunter cAMP assay)
Settings: chemiluminescence cAMP readout

`CC(=O)c1ccsc1C1CNCCO1` (single isomer, unassigned) gave an EC50 greater than 10 µM.
